US20140086890A1, “COMPOSITIONS AND METHODS FOR TREATING HYPERPROLIFERATIVE DISORDERS” (priority 2004, published 2014)

Tested on: bulk NK cells
Assay: expansion of bulk NK cells with feeder cells and IL-2
Details: for Expansion Fold: EBVLCL feeders, two weeks, averages of two experiments

Q: How did the “influence of IL-2 concentration on NK cell expansion” value (5 to 500 IU/mL, EBV-LCLs as feeders) turn out when “IL-2: interleukin-2 in NK cell culture media” was run?
A: The value was “did not influence”.

Q: What about the “Expansion Fold” value (IL-2 5 IU/ml) of the same substance?
A: Its value is 6.8 × 10^3 fold.

Q: What about the “Expansion Fold” value (IL-2 50 IU/ml) of the same substance?
A: The value was 2.5 × 10^4 fold.

Q: And the “Expansion Fold” value (IL-2 100 IU/ml)?
A: Its value is 2.6 × 10^4 fold.

Q: What about the “NK cell net expansion after 14 days” value (IL-2 (500 IU) containing SCGM media alone, no feeders) of the same substance?
A: The value was ~10^2 fold.
